{"sequences": {"note": "The chains behind the UniProt entries cited, without tags or fusion partners.", "UniProt P22909, whole entry": "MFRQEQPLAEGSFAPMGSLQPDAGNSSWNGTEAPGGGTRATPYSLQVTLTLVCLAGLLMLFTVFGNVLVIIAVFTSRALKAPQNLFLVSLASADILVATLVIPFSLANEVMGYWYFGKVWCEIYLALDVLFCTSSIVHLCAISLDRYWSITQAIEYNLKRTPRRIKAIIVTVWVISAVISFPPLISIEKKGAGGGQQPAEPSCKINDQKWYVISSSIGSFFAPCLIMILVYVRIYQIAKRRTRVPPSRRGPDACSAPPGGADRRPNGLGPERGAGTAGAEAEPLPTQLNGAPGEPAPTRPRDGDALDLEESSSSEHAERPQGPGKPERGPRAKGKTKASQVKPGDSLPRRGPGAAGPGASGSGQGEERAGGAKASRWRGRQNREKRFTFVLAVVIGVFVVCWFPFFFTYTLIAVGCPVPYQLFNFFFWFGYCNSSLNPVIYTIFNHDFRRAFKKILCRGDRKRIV", "UniProt P08913, whole entry": "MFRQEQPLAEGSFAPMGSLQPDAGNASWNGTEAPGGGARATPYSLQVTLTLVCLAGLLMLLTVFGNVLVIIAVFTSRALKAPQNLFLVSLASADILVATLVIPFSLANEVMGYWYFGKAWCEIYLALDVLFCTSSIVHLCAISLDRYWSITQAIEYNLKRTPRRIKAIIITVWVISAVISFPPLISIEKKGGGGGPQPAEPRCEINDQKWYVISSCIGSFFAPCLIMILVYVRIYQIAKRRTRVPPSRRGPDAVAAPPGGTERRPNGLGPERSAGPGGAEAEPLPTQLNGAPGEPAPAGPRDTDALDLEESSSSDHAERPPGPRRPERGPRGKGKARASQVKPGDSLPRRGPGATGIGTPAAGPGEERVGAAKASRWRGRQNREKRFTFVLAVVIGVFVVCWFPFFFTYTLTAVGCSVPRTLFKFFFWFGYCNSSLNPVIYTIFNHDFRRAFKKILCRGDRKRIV", "UniProt P23944, whole entry, looked up": "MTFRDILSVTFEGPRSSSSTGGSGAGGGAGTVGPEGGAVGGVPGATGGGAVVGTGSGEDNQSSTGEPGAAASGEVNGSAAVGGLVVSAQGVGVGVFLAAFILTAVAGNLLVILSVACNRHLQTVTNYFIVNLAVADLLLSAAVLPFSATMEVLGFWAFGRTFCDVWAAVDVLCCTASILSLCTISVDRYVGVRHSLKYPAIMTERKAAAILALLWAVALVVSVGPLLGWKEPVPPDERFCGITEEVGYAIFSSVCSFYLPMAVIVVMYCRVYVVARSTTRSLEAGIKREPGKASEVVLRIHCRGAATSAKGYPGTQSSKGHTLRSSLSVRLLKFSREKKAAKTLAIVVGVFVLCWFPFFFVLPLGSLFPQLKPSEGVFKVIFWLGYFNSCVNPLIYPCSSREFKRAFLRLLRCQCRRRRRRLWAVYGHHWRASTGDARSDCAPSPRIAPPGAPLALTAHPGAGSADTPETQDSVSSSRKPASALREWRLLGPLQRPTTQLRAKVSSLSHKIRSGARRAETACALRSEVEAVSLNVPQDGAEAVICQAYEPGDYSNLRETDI", "UniProt P15823, whole entry, looked up": "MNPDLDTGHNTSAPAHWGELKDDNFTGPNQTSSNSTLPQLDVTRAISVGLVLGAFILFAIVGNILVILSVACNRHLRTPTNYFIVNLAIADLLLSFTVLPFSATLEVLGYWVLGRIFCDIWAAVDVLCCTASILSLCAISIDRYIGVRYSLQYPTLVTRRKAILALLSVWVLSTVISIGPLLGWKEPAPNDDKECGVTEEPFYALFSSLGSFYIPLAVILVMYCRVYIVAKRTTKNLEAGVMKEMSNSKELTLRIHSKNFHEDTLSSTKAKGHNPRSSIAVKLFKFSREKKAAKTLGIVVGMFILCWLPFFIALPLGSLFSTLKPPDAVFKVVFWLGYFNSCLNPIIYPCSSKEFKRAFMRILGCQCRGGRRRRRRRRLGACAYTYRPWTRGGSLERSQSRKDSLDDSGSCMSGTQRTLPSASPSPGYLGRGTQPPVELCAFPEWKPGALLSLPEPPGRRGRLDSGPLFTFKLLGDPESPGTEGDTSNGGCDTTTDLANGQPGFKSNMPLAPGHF"}, "source": "ChEMBL document CHEMBL1148329", "about": "“Synthesis and structure-activity studies on N-[5-(1H-imidazol-4-yl)-5,6,7,8-tetrahydro-1-naphthalenyl]methanesulfonamide, an imidazole-containing alpha(1A)-adrenoceptor agonist” (J Med Chem, 2004)", "key": {"[1]": {"target": "Alpha-2A adrenergic receptor (Rattus norvegicus) (UniProt P22909)", "experiment": "Functional agonism to constrict tissue containing alpha-2A adrenergic receptor in rat prostatic vas deferens", "assay_type": "tissue-based", "in_short": "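For α2A, dose–response curves measured inhibition of field-stimulated contraction of rat prostatic vas deferens. pD2 is −log EC50, the concentration giving 50% of total relaxation. Efficacy is percent relative to clonidine. Values are mean ± SEM.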"}, "[2]": {"target": "Alpha-2A adrenergic receptor (Homo sapiens, UniProt P08913)", "experiment": "In vitro binding affinity towards alpha-2A adrenergic receptor of human clone in radioligand binding assay"}, "[3]": {"target": "Alpha adrenergic receptor 1A and 1D (Rattus norvegicus) (UniProt P23944+P43140)", "experiment": "Selectivity is ratio of pKi (binding affinity) of Alpha-1D to that of alpha1A", "assay_type": "protein assay"}, "[4]": {"target": "T1, Alpha-1A adrenergic receptor (Rattus norvegicus) (UniProt P43140)", "T1 sequence (whole entry)": "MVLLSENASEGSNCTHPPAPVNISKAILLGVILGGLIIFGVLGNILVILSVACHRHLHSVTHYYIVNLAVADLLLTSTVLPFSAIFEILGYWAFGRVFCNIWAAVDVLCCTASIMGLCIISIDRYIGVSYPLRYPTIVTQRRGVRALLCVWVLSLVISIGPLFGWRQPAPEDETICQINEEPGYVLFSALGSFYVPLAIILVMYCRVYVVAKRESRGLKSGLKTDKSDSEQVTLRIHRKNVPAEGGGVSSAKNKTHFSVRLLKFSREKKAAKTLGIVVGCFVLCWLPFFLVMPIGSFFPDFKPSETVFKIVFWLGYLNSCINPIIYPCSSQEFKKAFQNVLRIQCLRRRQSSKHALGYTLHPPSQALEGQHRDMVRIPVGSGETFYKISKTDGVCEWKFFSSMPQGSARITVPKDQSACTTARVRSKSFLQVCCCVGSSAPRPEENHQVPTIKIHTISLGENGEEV"}, "[5]": {"target": "Alpha adrenergic receptor 1A and 1B (Rattus norvegicus) (UniProt P15823+P43140)", "experiment": "Selectivity is ratio of pKi (binding affinity) of alpha-1B receptor to that of alpha-1A receptor.", "assay_type": "protein assay"}}, "note": "Calls of active or inactive are those of the source. No cut-off for these calls is given here."}
{"smiles": "CCS(=O)(=O)Nc1cccc(Cc2c[nH]cn2)c1", "values": [{"measurement": "pD2", "setting": "[1]", "result": 5.45}]}
{"smiles": "CC(=O)Nc1cccc2c1CCCC2c1c[nH]cn1", "note": "(stereo not given)", "values": [{"measurement": "Ki", "setting": "[2]", "result": 550, "unit": "nM"}]}
{"smiles": "COc1ccc2c(c1NS(C)(=O)=O)CCCC2c1c[nH]cn1", "note": "(stereo not given)", "values": [{"measurement": "Selectivity", "setting": "[3]", "result": 1}, {"measurement": "pD2", "setting": "[4]", "result": "inactive"}, {"measurement": "Selectivity", "setting": "[5]", "result": 3}]}
